SMILES strings stand for the structures.

The target in this experiment is T1, 14-3-3γ (Homo sapiens, UniProt P61981).
T1 construct: full-length human 14-3-3 constructs with an N-terminal MBP fusion were used; made in house; host or cells: E. coli BL21(DE3)
T1 sequence (P61981 1-247): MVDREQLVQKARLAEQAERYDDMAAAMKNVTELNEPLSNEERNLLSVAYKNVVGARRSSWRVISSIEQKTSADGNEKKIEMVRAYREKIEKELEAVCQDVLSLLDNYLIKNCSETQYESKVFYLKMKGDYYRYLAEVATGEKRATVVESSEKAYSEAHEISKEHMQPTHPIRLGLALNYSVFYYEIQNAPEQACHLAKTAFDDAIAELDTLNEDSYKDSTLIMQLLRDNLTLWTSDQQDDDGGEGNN
The experiment is described as follows: biochemical. It is filed as binding. As to the method: FP was measured with a PHERAstar (BMG Labtech, Offenburg, Germany) microplate reader by using 485 ± 20 and 528 ± 20 nm band-pass filters (for excitation and emission, respectively). In direct FP measurements, a dilution series of the 14-3-3 protein was prepared in 96-well plates (96-well skirted PCR plate, 4ti-0740, 4titude, Wotton, UK) in a 20 mM HEPES pH 7.5 buffer containing 150 mM NaCl, 0.5 mM TCEP, 0.01% Tween 20, 50 nM fluorescently labeled fpB6 peptide, and 100 μM FSC, if indicated. The volume of the dilution series was 40 μl, which was later divided into three technical replicates of 10 μl upon transferring to 384-well micro-plates (low binding microplate, 384 well, E18063G5, Greiner Bio-One, Kremsmünster, Austria). In total, polarization of the probe was measured at eight different protein concentrations (whereas one contained no protein and corresponded to the free peptide). In competitive FP measurements, the same buffer was supplemented with the protein to achieve a complex formation of 60–80%, based on the direct titration. Then, this mixture was used for creating a dilution series of the unlabeled competitor (i.e., the studied peptides) and the measurement was carried out identically as in the direct experiment.
All FP experiments were done in triplicates. Analysis of FP experiments were carried out using ProFit, an in-house developed, Python-based fitting program. […]

The Kd is the free concentration of one partner at which half of the binding sites on the other are occupied at equilibrium, for simple one-to-one binding. A low value points to a tighter complex. The molecule `CC(C)[C@H](NC(=O)[C@H](CCC(=O)O)NC(=O)[C@@H](NC(=O)[C@H](CCC(=O)O)NC(=O)[C@H](CCCNC(=N)N)NC(=O)[C@H](CCCNC(=N)N)NC(=O)[C@@H](NC(=O)[C@@H]1CCCN1C(=O)[C@H](CCCCN)NC(=O)[C@H](CO)NC(=O)CCC(=O)NCCCOCCOCCOCCCNC(=O)CCCC[C@@H]1SC[C@@H]2NC(=O)N[C@@H]21)[C@@H](C)O)[C@@H](C)OP(=O)(O)O)C(=O)O` [pHPV35E6] displayed a Kd of 228 ± 61 µM.

The record behind these values is paper PMC7961048, “Hierarchized phosphotarget binding by the seven human 14-3-3 isoforms” (Nature Communications, 2021).
